Bioassay records: PubChem, National Center for Advancing Translational Sciences (NCATS)
A549 tox – counter-screen for Nrf2 inhibitors: cytotoxicity in A549 cells | A549 ARE-Fluc cells, CellTiter-Fluor viability, 18-24 h | Potency, µM (doses to about 46 µM), for the others: at the highest dose activity change, negative = cytotoxicity, hits mostly inhibitors | 0.16% of 390,000 active | AID 504648; also: potency is read from the fitted curve at half-maximal effect; % is scaled to controls: 0 for no effect and ±100 for the full control effect
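Cytotoxicity counterscreen: CellTiter-Fluor fluorescence was measured in A549 ARE_Fluc cells after 18-24 h of compound exposure in a concentration series. The subsequent BugLite luminescent read reports ARE-luciferase activity.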
Nrf2 ARE act – activates Nrf2 signaling. AREc32 ARE-luciferase reporter (MCF7-derived line), luminescence, 24 h. Potency, µM (highest dose often 46.1 µM), without a hit: top-dose activation, most hits filed as activators. 0.31% of 410,000 active. AID 624171; also: potency is read from the fitted curve at half-maximal effect; % of control where 0% means no effect; nearly all actives have a fitted effect of over 65% in size
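Steps: seed AREc32_Fluc cells (1000/well, 5% FBS OPTI-MEM); incubate overnight at 37 deg C; add 23 nL compound; incubate 24 hr; add Steady-Glo; hold 30 min RT; read luminescence.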
IL2 activator – activates IL-2 in a cell-based reporter assay | IL-2 activation reporter assay, cell-based qHTS; stimulated with anti-CD3/CD4/CD28 beads; in transgenic mouse T cells | activation, % (series mostly up to about 46 µM) | 0.065% of 360,000 active | AID 652025; in the data active = activation above about 50%; inconclusive = mostly about 30% to 49%; also: 0% is about no effect
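Readout: EGFP and DsRed signals by fluorescent plate cytometry. Unstimulated transgenic mouse T cells received compound 60 min before antibody-bead stimulation, then incubated 18 h at 37 degrees C.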
Nrf2 block – blocks Nrf2 signaling | A549 ARE-Fluc reporter, luciferase luminescence, 18-24 h | Potency, µM (series often up to 46 µM), for the others: at the highest dose activity change, negative = inhibition, actives largely listed as inhibitors | 2.1% of 360,000 active; also: potency is read from the fitted curve at half-maximal effect; % is scaled to controls: 0 for no effect and ±100 for the full control effect; nearly all actives have a fitted effect of over 60% in size
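In this cell-based qHTS, ARE-driven firefly luciferase in A549 cells reports Nrf2 activity; the luminescent signal after BugLite lysis is the measured value, with a prior CellTiter-Fluor read for cell health.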
ClpP mod – qHTS Assay for Activators of ClpP. purified B. subtilis ClpP, FRET peptide cleavage, 20 min. Potency, µM (top dose mostly 57.5 µM), for the others: at the top dose activity change, negative = active. 1.9% of 340,000 active. AID 651965, 2013; active = well fitted falling curve with a large enough effect; inconclusive = small, poorly fitted or top-dose-only effect; inactive = no such curve, though single readings can be large or run the other way; also: potency is read from the fitted curve at half-maximal effect; the source files actives as falling curves though it sought activators and does not explain the sign; nearly all actives have a fitted effect of over 65% in size
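Purified B. subtilis ClpP, 10 microg/mL final in Tris/HCl pH8 with KCl, BSA, glycerol and Tween-20, cleaved an Abz/nitrotyrosine-quenched decapeptide. Fluorescence (ex 320, em 430) was read at 0 and 20 min at room temperature. Delta was normalized to 5.8 microM ADEP and DMSO/no-enzyme controls.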
miR-21 FLuc – miR-21 reporter, rising signal; Potency, µM (titrated, usually from 38.3 µM), without a hit: at the highest dose reporter change, positive = more light; AID 2288; 340,000 tested, under 10 active; HeLa miR-21 FLuc reporter, luciferase, 48 h; active = well fitted rising curve with a large enough effect; inconclusive = small, poorly fitted or top-dose-only effect; inactive = no such curve, though single readings can be large or run the other way;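 note: % of control where 0% means no effect; miR-21 action dims this reporter so a rising signal means less miR-21 action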
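Compounds were titrated across several concentrations (up to approximately 40 uM) and incubated 48 hours with HeLa miR-21-FLuc reporter cells (miR-21 target sequence downstream of FLuc, endogenous miR-21). Readout was firefly luciferase luminescence after lytic detection reagent.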
* hit, by the source's call; u = inconclusive; x = not tested or not shown. Rows were chosen to be rich in hits. Some 3.7% of all compounds tested hit in one or more screens of this group. Unless noted, calls follow the shape of the dose curve; as a rule, active = well fitted curve in the direction sought with a large enough effect; inconclusive = small, poorly fitted or top-dose-only effect, or another doubt; inactive = no such curve, though single readings can be large; an effect the other way counts as inactive or inconclusive.

| Compound | Nrf2 block | IL2 activator | A549 tox | ClpP mod | Nrf2 ARE act | miR-21 FLuc |
| --- | --- | --- | --- | --- | --- | --- |
| CCCN1/C(=C2/SC(=S)N(CC)C2=O)C=Cc2ccccc21 | u | 0 | 18µM* | 0% | 1% | 0% |
| Cc1ccc(OCCSc2nc3ccccc3n2CC(=O)NC(C)C)cc1 | 17% | x | 5% | 1% | -1% | -1% |
| CCc1ccccc1NC(=O)CC(C)n1nc(C)cc1C (centres undefined) | 12% | x | -10% | -3% | 0% | -1% |
| C/C(=N\NC(=O)C1(C)CC1(Br)Br)c1cccc(NC(=O)C2CCC2)c1 (centres undefined) | -23% | 0 | -8% | 22µM* | 3% | 14% |
| C[C@@H]1Cc2c(O)c(O)cc(O)c2C(=O)O1 | 15% | 1 | -4% | -4% | 4% | 4% |
| CC1CCC/C=C/C(=O)c2c(O)cc(O)cc2CC(=O)O1 (centres undefined) | 5.8µM* | 0 | 13µM* | -7% | -3% | u |
| CCN(CC)c1ccc(/C=C/c2cc(Cl)nc3ccccc23)cc1 | x | x | x | -1% | x | x |
| CCN(CC)c1ccc2nc3ccc(N)cc3[n+](-c3ccccc3)c2c1 | 15µM* | 0 | 18µM* | -7% | -2% | x |
| CCN(CC)c1ccc2nc3ccccc3[n+](CC)c2c1 | 9.2µM* | 0 | 8.2µM* | x | -2% | u |
| CCN(CC)c1ccc2cc(-c3nc4ccccc4[nH]3)c(=O)oc2c1 | -11% | 14 | u | -2% | 0% | -22% |
| Cc1cccc(-n2ncc(C(=O)NCc3ccc4c(c3)OCO4)c2C2CCN(C(=O)OC(C)(C)C)CC2)c1 | 16µM* | x | -16% | 0% | 0% | 25% |
| Cc1cccc(-n2ncc(C(=O)Nc3ccc4c(c3)OCO4)c2C2CCN(C(=O)OC(C)(C)C)CC2)c1 | 6% | x | 0% | -1% | 3% | 7% |
| Cc1ccc(-n2ncc(C(=O)NCc3cccs3)c2C2CCN(C(=O)OC(C)(C)C)CC2)cc1C | 21µM* | x | -20% | 2% | -1% | u |
| Cc1ccc(C)c(N2CCN(CCCNC(=O)c3cnn(-c4ccccc4)c3C3CCN(C(=O)OC(C)(C)C)CC3)CC2)c1 | 18µM* | x | u | -1% | -1% | 3% |
| CC1CCN(C(=O)C(C)OC(=O)c2ccc(S(C)(=O)=O)c([N+](=O)[O-])c2)CC1 (centres undefined) | 5% | x | -7% | -1% | x | x |
| Cc1cc2c(s1)c1cnn(Cc3ccc(C(C)C)cc3)c(=O)c1n2C | -18% | x | 3% | x | x | x |
| O=C(C1c2ccccc2Oc2ccccc21)N1CCN(c2ccc(Cl)cc2)CC1 | 26µM* | 0 | u | -5% | -1% | 3% |
| O=C(CN1CCSc2ccccc21)NCc1ccccc1F | x | x | u | 0% | 3% | -38% |
| COc1ccc(/C=C/C(=O)Nc2nc(-c3cccs3)ns2)cc1OC | u | x | -2% | u | 8% | 20% |
| COC1=C(Nc2ccccc2)C(=O)c2ccccc2C1=O | -1% | -4 | -2% | -10% | 0% | -16% |
| CC1=C(Nc2ccc(C(=O)O)cc2)C(=O)c2ccccc2C1=O | 23µM* | 1 | u | 1% | 2% | 0% |
| O=C(O)c1ccc(NC2=C(Cl)C(=O)c3ccccc3C2=O)cc1 | 1% | -5 | -11% | 2% | 10% | -23% |
| COC1=C(Nc2ccc(C)cc2)C(=O)c2ccccc2C1=O | 16µM* | -3 | u | 3% | 1% | -50% |
| Cc1ccc(NC(=O)c2cc(S(=O)(=O)N3CCCC(C)C3)cn2C)c(Br)c1 (centres undefined) | x | x | 7% | 44% | 0% | 4% |
| COc1cccc(C2c3c(ncn(-c4ccccc4C(C)(C)C)c3=N)Oc3ccc4ccccc4c32)c1 (centres undefined) | -2% | x | -5% | x | x | x |
| CCOc1ccc(-c2nc(CSCC(=O)N3CCN(c4cccc(C(F)(F)F)c4)CC3)c(C)o2)cc1 | x | x | u | -7% | -3% | 20% |
| O=S(=O)(NCCc1ccccc1)c1cccs1 | 13% | 0 | 9% | x | -1% | -6% |
| O=S(=O)(NCc1ccccc1)c1cccs1 | -36% | -4 | -8% | 14µM* | 0% | -4% |
| O=C(Nc1ccccn1)c1ccc(Cl)c(S(=O)(=O)N2CCc3ccccc32)c1 | 21µM* | -1 | -23% | -1% | -1% | x |
| CCc1nnc(NC(=O)c2ccc(Cl)c(S(=O)(=O)N3CCc4ccccc4C3)c2)s1 | 18µM* | 3 | -4% | -7% | -1% | -2% |
| OCc1cnc(SCc2ccccc2F)n1Cc1ccc(F)cc1 | x | x | 10% | -5% | 3% | 0% |
| Cc1nc(N/N=C/c2cccc(F)c2)cc(N2CCOCC2)n1 | -18% | -1 | 1% | 2% | 9% | 6% |
| Cc1nc(N/N=C/c2ccc(O)cc2O)cc(N2CCOCC2)n1 | 21µM* | -4 | 2% | x | 0% | 14% |
| O=C(NC1CCCC1)c1cnn2c1NC(=C1CC1)C=C2C(F)F | x | x | x | -4% | x | x |
| Clc1ccc(-c2csc(N/N=C/c3ccco3)n2)cc1 | u | -5 | u | 0% | 8.9µM* | -47% |
| Cc1ccc(-c2cc(C(=O)Nc3ccc(SC(F)F)cc3)no2)cc1F | -23% | x | 1% | -3% | -1% | 11% |
| COc1cc(NC(=O)c2ncn(-c3ccccc3)n2)cc(OC)c1 | u | x | 0% | 0% | 9% | -58% |
| COc1ccc(Cl)cc1NC(=O)c1ncn(-c2ccccc2)n1 | u | x | -6% | 4% | 8.9µM* | -18% |
| Cc1cccc(C)c1NC(=O)Cn1nc(C)c2sc3ccccc3c2c1=O | 21µM* | x | 4% | 4% | 0% | 20% |
| Cc1nn(-c2ccc(F)cc2)c2c1cc(C#N)c1nc3ccccc3n12 | 6% | 0 | -5% | 16µM* | -1% | -5% |
| Nc1nn(-c2ccccc2)c(N)c1N=Nc1ccc2c(c1)OCO2 | -10% | -2 | 15µM* | 3% | -1% | -1% |
| C(=N\Nc1ccc2nncn2n1)/c1ccco1 | 3% | 2 | -8% | -10% | 10µM* | 0% |
| Cc1ccc(S(=O)(=O)N2CCN(c3nc(-n4cccn4)nc4ccccc34)CC2)cc1 | x | x | x | -6% | x | x |
| O=C(c1cccc([N+](=O)[O-])c1)N1c2nc(-c3ccco3)nn2C2(CCCCC2)[C@@H]2CCCC[C@@H]21 | 3% | x | -13% | 0% | 5% | 6% |
| Cc1ccc(NC(=O)COC(=O)c2cccc3c2C(=O)c2ccccc2C3=O)c(C)c1 | u | 2 | -1% | -1% | 0% | -3% |
| Cc1ccc(C)c(NC(=O)COC(=O)c2cccc3c2C(=O)c2ccccc2C3=O)c1 | 13µM* | 0 | -2% | 2% | 0% | -5% |

Five consecutive compounds from above:
| Compound | Nrf2 block | IL2 activator | A549 tox | ClpP mod | Nrf2 ARE act | miR-21 FLuc |
| --- | --- | --- | --- | --- | --- | --- |
| C(=N\Nc1ccc2nncn2n1)/c1ccco1 | 3% | 2 | -8% | -10% | 10µM* | 0% |
| Cc1ccc(S(=O)(=O)N2CCN(c3nc(-n4cccn4)nc4ccccc34)CC2)cc1 | x | x | x | -6% | x | x |
| O=C(c1cccc([N+](=O)[O-])c1)N1c2nc(-c3ccco3)nn2C2(CCCCC2)[C@@H]2CCCC[C@@H]21 | 3% | x | -13% | 0% | 5% | 6% |
| Cc1ccc(NC(=O)COC(=O)c2cccc3c2C(=O)c2ccccc2C3=O)c(C)c1 | u | 2 | -1% | -1% | 0% | -3% |
| Cc1ccc(C)c(NC(=O)COC(=O)c2cccc3c2C(=O)c2ccccc2C3=O)c1 | 13µM* | 0 | -2% | 2% | 0% | -5% |
